Our source for the IC50 values is US6433165B1, “Chemokine receptor antagonists and methods of use therefor” (Millennium Pharmaceuticals, Inc., priority 1998, dated 2002).

By UniProt entry, the sequences of proteins in these tests, tags left out.
UniProt P32246, whole entry: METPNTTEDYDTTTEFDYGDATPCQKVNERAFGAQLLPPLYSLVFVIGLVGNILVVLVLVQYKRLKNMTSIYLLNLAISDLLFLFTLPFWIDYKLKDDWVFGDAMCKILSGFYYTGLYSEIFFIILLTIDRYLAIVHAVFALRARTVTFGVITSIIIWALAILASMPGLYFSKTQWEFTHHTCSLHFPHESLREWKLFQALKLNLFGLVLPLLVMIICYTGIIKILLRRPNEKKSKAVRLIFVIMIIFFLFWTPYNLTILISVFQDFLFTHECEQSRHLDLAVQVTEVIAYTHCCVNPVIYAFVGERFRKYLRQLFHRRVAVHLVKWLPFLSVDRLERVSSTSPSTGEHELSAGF

The target in this assay is RANTES / MIP-1α binding to THP-1 cell membranes (Homo sapiens, UniProt P32246). Put plainly: Receptor binding assay, 125I-RANTES or 125I-MIP-1α binding to THP-1 cell membranes. The note with it: read-out: IC50 (inhibitor concentration required for 50% inhibition of specific binding), 125I-RANTES or 125I-MIP-1α as ligand, 60 min at room temperature. The procedure:
Membranes were prepared from THP-1 cells (ATCC #TIB202). Cells were harvested by centrifugation, washed twice with PBS (phosphate-buffered saline), and the cell pellets were frozen at −70 to −85° C. […] This procedure results in cell lysis. The suspension was mixed well to resuspend all of the frozen cell pellet. Nuclei and cell debris were removed by centrifugation of 400×g for 10 minutes at 4° C. The supernatant was transferred to a fresh tube and the membrane fragments were collected by centrifugation at 25,000×g for 30 minutes at 4° C. The supernatant was aspirated and the pellet was resuspended in freezing buffer consisting of 10 mM HEPES pH 7.5, 300 mM sucrose, 1 μg/ml each aprotinin, leupeptin, and chymostatin, and 10 μg/ml PMSF (approximately 0.1 ml per each 10^8 cells). All clumps were resolved using a minihomogenizer, and the total protein concentration was determined using a protein assay kit (Bio-Rad, Hercules, Calif., cat #500-0002). The membrane solution was then aliquoted and frozen at −70 to −85° C. until needed. Binding Assays utilized the membranes described above. […] The filters were rinsed with approximately 600 μl of binding buffer containing 0.5 M NaCl, dried, and the amount of bound radioactivity was determined by scintillation counting in a Topcount beta-plate counter.

Take `Cc1cccc(C2(O)CCN(CCCC3(C#N)c4ccccc4CSc4ccccc43)CC2)c1` (centres unmarked): the IC50 was under 1 µM. In the case of `N#CC1(CCCN2CCC(O)(c3ccc(F)cc3)CC2)c2ccccc2CSc2ccccc21` (centres unmarked) it was under 1 µM.
